This passage reports IC50 results from PMC12044245 (Emerging Infectious Diseases, 2025).

The assay concerns the target NA (neuraminidase) of A/Yamagata/135/2023 (Influenza A virus, UniProt C3W5S3). In kind it is biochemical.

Molecules are shown by their SMILES.

As a reminder, the IC50 is the concentration that inhibits the measured activity by half. The low end stands for higher potency, the high end for lower potency.

In the case of `CC(=O)N[C@H]1[C@H]([C@H](O)[C@H](O)CO)OC(C(=O)O)=C[C@@H]1N=C(N)N` [Zanamivir, zanamivir], the IC50 was 0.43 nM.
